Earlier results, collected in patent publication US20040157796A1 (published 2004).

Sequences of proteins named here, by UniProt entry; tags and fusion partners are left off. Residues count along the entry.
UniProt P35354, 18-604: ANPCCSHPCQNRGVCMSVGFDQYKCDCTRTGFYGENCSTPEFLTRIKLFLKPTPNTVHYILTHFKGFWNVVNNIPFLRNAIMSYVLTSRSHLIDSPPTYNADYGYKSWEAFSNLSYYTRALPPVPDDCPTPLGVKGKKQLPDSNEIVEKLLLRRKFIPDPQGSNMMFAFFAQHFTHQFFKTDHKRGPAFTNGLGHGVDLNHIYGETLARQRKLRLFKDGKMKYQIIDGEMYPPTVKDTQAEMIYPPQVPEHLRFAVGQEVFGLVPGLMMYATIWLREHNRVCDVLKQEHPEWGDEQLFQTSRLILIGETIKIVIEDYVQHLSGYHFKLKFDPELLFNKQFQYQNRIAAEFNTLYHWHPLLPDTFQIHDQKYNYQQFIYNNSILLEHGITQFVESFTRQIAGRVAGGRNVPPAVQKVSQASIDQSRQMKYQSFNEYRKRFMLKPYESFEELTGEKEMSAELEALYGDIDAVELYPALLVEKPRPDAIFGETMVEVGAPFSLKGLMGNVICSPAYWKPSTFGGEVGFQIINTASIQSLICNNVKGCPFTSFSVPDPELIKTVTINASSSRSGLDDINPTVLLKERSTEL

Target: COX-2 (Homo sapiens, UniProt P35354)

CCC(=O)NS(=O)(=O)c1ccc(-c2c(-c3ccccc3)noc2C)cc1 [Parecoxib, N-[[4-(5-methyl-3-phenylisoxazol-4-yl)phenyl]sulfonyl]propanamide]
in vitro inhibitory activity against COX-2: weak in vitro inhibitory activity
